## Yeast mating assay B: variants of the scFv Ab-14

Antigen: PDVDLGDISGINAS, a 14-residue peptide of the SARS-CoV-2 spike HR2 region.

Parent scFv Ab-14: VH joined to VL by the linker GGGGSGGGGSGGGGS. Changes lie in the heavy chain CDRs alone.
VH: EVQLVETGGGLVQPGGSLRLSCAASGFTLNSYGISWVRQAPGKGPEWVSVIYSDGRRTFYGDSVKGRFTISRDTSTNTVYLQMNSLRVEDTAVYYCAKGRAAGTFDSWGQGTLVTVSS
VL: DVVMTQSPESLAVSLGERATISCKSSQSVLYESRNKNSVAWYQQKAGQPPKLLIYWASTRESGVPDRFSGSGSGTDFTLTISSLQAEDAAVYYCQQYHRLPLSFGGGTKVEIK

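The starting antibody came from a phage panning campaign against this peptide. These sequences belong to a second round, designed from the earlier measurements on random variants of the parent. Several design methods are mixed in this list. The assay is AlphaSeq: two haploid yeast populations carry antibody and antigen on their surface. The frequency of each diploid, read from paired DNA barcodes, reflects how well the two displayed proteins bind. A regression on co-assayed BCL2-family reference pairs converts the normalised counts of each replicate to an apparent Kd. Mating was done six times.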

Changes read parent residue, position, new residue, counted from the first residue of the VH shown.
Variants here have at most six changes.
The Kd shown is the geometric mean over detected replicates; a lower Kd is a better binder.
An entry "nd" has no value in the source: the pair was not observed among the diploids in any replicate. This suggests poor binding but is not conclusive.
Order: sorted from the lowest average up, undetected variants last.
Background: pairings of all heavy chain designs with three empty control strains gave a value in 1% of cases (median 120 nM, 5th percentile 7.0 nM). Values in that range, when seen in few replicates, are hard to tell from nonspecific mating. For each scFv, signals with the empty controls are counted beside the result.

Variant T28Q+S31E+G61T+S63R+R100E showed 520 pM (1 of 6 replicates; controls 0 of 18). Variant T28D+S31E+S53A+G61A+R100G+A101N gave 530 pM (6 of 6 replicates; controls 0 of 18). With T28S+S31E+G61V+R100K the result was 550 pM (6 of 6 replicates; controls 1 of 18). For S31E+G61E+A101T, the assay gave 1.2 nM (6 of 6 replicates; controls 0 of 18). With T28V+S31E+G61A+A101T the result was 1.3 nM (6 of 6 replicates; controls 0 of 18). With T28S+G61A+S63T+R100E+S107K the result was 2.5 nM (6 of 6 replicates; controls 1 of 18).

Variant T28S+S31E+G61A+A101N gave 2.9 nM (6 of 6 replicates; controls 1 of 18). Variant T28S+R100S+A101T+S107R showed 3.5 nM (6 of 6 replicates; controls 0 of 18). Variant T28H+G61D+R100Q+A101E showed 3.8 nM (5 of 6 replicates; controls 0 of 18). For T28S+S31N+F59A, the assay gave 7.3 nM (6 of 6 replicates; controls 0 of 18). Variant R56K+A101L+S107T gave 12 nM (4 of 6 replicates; controls 0 of 18). For F59E+G61K+K65R, the assay gave 20 nM (2 of 6 replicates; controls 0 of 18).

For R56Q+G61I+A101V, the assay gave 23 nM (2 of 6 replicates; controls 0 of 18). With F27Y+Y60F+K65V the result was 34 nM (1 of 6 replicates; controls 0 of 18). For S31E+D106S+S107T, the assay gave 38 nM (4 of 6 replicates; controls 1 of 18). For S31D+A101Y+S107T, the assay gave 38 nM (6 of 6 replicates; controls 0 of 18). Variant G61D+S63D+R100Q gave 100 nM (5 of 6 replicates; controls 0 of 18). With R56Y+R100N the result was 170 nM (5 of 6 replicates; controls 1 of 18).

For T28W+S31M, the assay gave 260 nM (2 of 6 replicates; controls 0 of 18). Variant T28E+G61Q+R100Q gave 550 nM (2 of 6 replicates; controls 1 of 18). Variant G26L+F27H+V50Q+S53A gave nd (0 of 6 replicates; controls 2 of 18). Variant T28V+A102I showed nd (0 of 6 replicates; controls 0 of 18). Variant S35D+G61D+R100Q+A101L gave nd (0 of 6 replicates; controls 0 of 18). Variant F59S+S63N+A101M showed nd (0 of 6 replicates; controls 0 of 18).

Variant S31D+F59Q+G61I+D106E showed nd (0 of 6 replicates; controls 0 of 18). With T28D+T104H+D106Y the result was nd (0 of 6 replicates; controls 0 of 18). Variant T28D+R56I+V64F+R100Q+G103S gave nd (0 of 6 replicates; controls 1 of 18). With S31D+G61T+A101M+D106I the result was nd (0 of 6 replicates; controls 0 of 18). For G26K+T28N+G61V+R100N+A101Q, the assay gave nd (0 of 6 replicates; controls 0 of 18). For L29I+N30E+R100K+G103D, the assay gave nd (0 of 6 replicates; controls 0 of 18).

With T28H+G61Q+R100Q+A101T+S107R the result was nd (0 of 6 replicates; controls 0 of 18). With T28W+G61K+R100Q the result was nd (0 of 6 replicates; controls 0 of 18). With T28G+S63Q+A101T the result was nd (0 of 6 replicates; controls 0 of 18).

Picked from the list: the 5 lowest averages where every replicate gave a value.

For T28D+S31E+S53A+G61A+R100G+A101N, the assay gave 530 pM (6 of 6 replicates; controls 0 of 18).
For T28S+S31E+G61V+R100K, the assay gave 550 pM (6 of 6 replicates; controls 1 of 18).
For S31E+G61E+A101T, the assay gave 1.2 nM (6 of 6 replicates; controls 0 of 18).
For T28V+S31E+G61A+A101T, the assay gave 1.3 nM (6 of 6 replicates; controls 0 of 18).
For T28S+G61A+S63T+R100E+S107K, the assay gave 2.5 nM (6 of 6 replicates; controls 1 of 18).

The range of this assay differs from that of the first round, and the authors advise against merging the two.
The authors' rule: three or more of the six replicates give a measured affinity, fewer mean a poor binder.

Data: MIT Lincoln Laboratory AlphaSeq set, Li et al. 2023, doi:10.1038/s41467-023-39022-2, as distributed in FLAb.